# AlphaSeq binding of Ab-14 light chain variants to a spike HR2 peptide

Values reported by Li et al. 2023, doi:10.1038/s41467-023-39022-2 (FLAb copy).

All variants were tested on one target, the spike HR2 peptide PDVDLGDISGINAS (SARS-CoV-2).

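The parent was found by panning a naive human phage display library on the peptide. These sequences belong to a second round, designed from the earlier measurements on random variants of the parent. Group labels follow the data file (En: ensemble of fine-tuned language models; GP: Gaussian process model; HC: hill climbing; Gen: genetic algorithm; Gibbs: Gibbs sampling; a sequence that several methods proposed may carry one label only). In AlphaSeq, yeast of one mating type display the scFv and yeast of the other type display the target. Binding brings cells together so that they mate, and sequencing counts the barcode pairs among the diploids. Scores were corrected for input abundance and mapped to Kd with protein pairs of known affinity run in the same pool. The assay was run in six technical replicates.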

Parent scFv Ab-14: VH joined to VL by a 15-residue (Gly4Ser)3 linker. Changes lie in the light chain CDRs alone.
VH: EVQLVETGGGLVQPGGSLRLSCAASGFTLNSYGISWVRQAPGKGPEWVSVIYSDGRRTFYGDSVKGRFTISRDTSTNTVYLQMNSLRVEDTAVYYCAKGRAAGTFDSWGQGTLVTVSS
VL: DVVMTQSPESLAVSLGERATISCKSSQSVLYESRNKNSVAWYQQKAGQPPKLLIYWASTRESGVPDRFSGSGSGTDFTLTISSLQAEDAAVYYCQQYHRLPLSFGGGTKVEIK

The parent's light chain CDRs are KSSQSVLYESRNKNSVA, WASTRES, QQYHRLPLS; each variant's own CDRs replace them letter for letter. Variants here have more than six changes. The Kd shown is the geometric mean over detected replicates; a lower Kd is a better binder. An entry "nd" has no value in the source: the pair was not observed among the diploids in any replicate. This suggests poor binding but is not conclusive. The authors averaged sequences with at least three values out of six and counted those with two or fewer as poor binders. The range of this assay differs from that of the first round, and the authors advise against merging the two. Background: pairings of all light chain designs with three empty control strains gave a value in 4% of cases (median 430 nM, 5th percentile 38 nM). Values in that range, when seen in few replicates, are hard to tell from nonspecific mating. The parent sequence was in this pool as ten entries: three were never detected, three once, and four in most replicates, with averages from 2.2 nM to 240 nM.

CDR-L1	CDR-L2	CDR-L3	group	Kd	replicates with signal
KFSQSNPYEQRNKNSVA	EASQREE	QQYHRLPLS	GP_Gibbs	1.1 nM	6/6
MVTQMAMTGMMSKRSVA	NAETREN	QQYHRLPLI	En_Gen	4.4 nM	6/6
TISMLSNHMTRNSNNVA	NMDMRED	QQYDRLPLS	En_Gen	1.8 nM	6/6
NISEPMYFQTRMKNNIA	EVSTRER	QHYHRLPLS	En_HC	270 nM	5/6
NIYQAMHTLSQMKDNVA	DVNERGD	QQYFRLPLS	En_Gen	1.1 nM	6/6
KCDQWVFYGDRNKNSVA	NASTRES	QQYHRLPLS	GP_Gibbs	2.3 nM	6/6
KLNEDVGNHTHDQKNVA	DESRVDR	QQYAHLPLS	En_Gibbs	nd	0/6
SMHPFDVAIGKGTQNVA	HVSVRAS	QQYDRLPLV	En_Gibbs	18 nM	6/6
KIQQSMLYESRNSNSVA	NASTRME	QQYHRLPLM	GP_Gibbs	1.1 nM	6/6
HLSDLVKQESRNTNSVA	DNSTRGS	QQYDRLPLS	En_HC	48 nM	6/6
KIQQEHVGYNKKMEAIA	QGDQRCH	QSYDRLPLS	En_Gibbs	6.4 nM	6/6
KFEQLVGPEQRNKNSVA	NASLRED	QQYHRLPLS	GP_Gibbs	2.0 nM	6/6
ILSQSVLMGMHTKNAVA	QATMRFN	QQYHRLPFM	En_HC	1.6 nM	6/6
QLMEEQSMRTEAQRSIA	QGEQKVH	QQYFRLPLA	En_Gibbs	4.2 nM	6/6
TLYDATLMESRNKNPIA	DVSTRPS	QQYHRLPLS	En_HC	14 nM	6/6
KLSQVTHSESRNKNSIA	EMVTREE	QQYDRLPLS	En_HC	40 nM	3/6
MLSALVKMGSRNTNSVA	DNSTRGS	QQYDRLPLS	En_HC	24 nM	5/6
TISQSMVMENQFKNSVA	QASTRES	QCYDRLPLS	En_HC	72 nM	6/6
KLDGSDLYESRNKNSVA	EGSTRES	QAYHRLPLS	GP_Gibbs	1.8 nM	6/6
KLQNSQEYESRMKNSVA	NASQREE	QQYHRLPLS	GP_Gibbs	450 pM	6/6
HVESAWLESNAKKKNVA	NGQGRVE	QQYGRLPLQ	En_Gibbs	3.9 nM	6/6
LISGVWDYGSRNYNSVA	QTSTRES	QQYDRLPLF	En_HC	28 nM	6/6
HIGGTMTWESKAKNSVA	QSNTRAE	QQYHRLPLS	En_HC	1.9 nM	6/6
TIGQSTLMESANRNNVA	QMSTREK	QQYDRLPLS	En_HC	950 pM	6/6
KMRSGSVLQWNNENSVA	EMSEVYR	QQYVSLPLS	En_Gibbs	nd	0/6
HLGLVTELEAKVKNSVA	NNSTREE	QQYDRLPLS	En_Gen	65 nM	6/6
TLTQVTMVESYEKNSVA	QASTRLE	QDYHRLPLS	En_HC	50 nM	6/6
MISMNIWGEYRNRDNVA	HASNREN	QCYDRLPLS	En_Gen	44 nM	6/6
KLIQSVAMLSRNKDSIA	DNSTRES	QQYHRLPLS	En_HC	6.8 nM	6/6
KLSQVTGHLSVEKNNVA	EMETREP	QQYDRLPLS	En_Gen	10 nM	6/6
TLFEGRSYWDGDERNIA	NARMRED	QDYARLPLV	En_Gibbs	33 nM	6/6
KLVQFMNRGTHHTSNIA	DAALREE	QQYARLPLA	En_Gen	1.2 nM	6/6
SMIPFDNQIGKGTNNIA	HVSVRAS	QQYARLPLV	En_Gibbs	4.1 nM	6/6
SISGFMKSLSAHINNVA	DMTNREN	QQYDRLPLS	En_Gen	1.3 nM	6/6
RVRNEMGKEMERGQSVA	ETEQRCM	QQYARLPLI	En_Gibbs	5.8 nM	6/6
KLQQSWGYQSRNKNSVA	NASTRED	QQYHRLPLS	GP_Gibbs	5.6 nM	6/6
KWQQSSDYESRNFNSVA	NASTRCT	QQYHRLPLS	GP_Gibbs	1.6 nM	6/6
HMSMLTLMGMRQRNSVA	QMTMREN	QQYDRLPLV	En_Gen	20 nM	6/6
KIGMTLNTLEHKQNNVA	DLVTREN	QQYFRLPLS	En_Gen	2.4 nM	6/6
KFFQSQLYEQRNQNNVA	SASTRED	QQYHRLPLS	GP_Gibbs	640 pM	6/6
KLQQMVEMESRNPNSVA	SASTREL	QQYHRLPLS	GP_Gibbs	1.5 nM	6/6
TLTQVQGMESHNKDNVA	DLSTRGN	QQYDRLPLS	En_HC	5.3 nM	6/6
KISFQYRYEQLSKNNIA	EVVTRLK	QQYHRLPLS	En_HC	51 nM	5/6
KLDMNELGQSQNKNCVA	DSAQKCS	QQYSRLPLS	En_Gibbs	3.2 nM	6/6
HISYMDGHDRKNAHNIA	DTGVTSR	QQYSRLPLI	En_Gibbs	1.5 nM	6/6
KQQFSGMGGSRNKNSVA	KASTRES	QQYHRLPLS	GP_Gibbs	35 nM	6/6
KLVQFMNRGTHHTSNIA	DAANRID	QQYYRLPLA	En_Gen	88 nM	5/6
MFSQLTYTGSRARNAVA	QASLREN	QQYHHLPLI	En_HC	17 nM	6/6
IIDSIMFHGNKRANSIA	QAEERVN	QQYHHLPLT	En_Gen	16 nM	6/6
TISMSMNWLNRNKNSIA	EESTRED	QQYDRLPLS	En_HC	1.6 nM	3/6
MISDLMLYGARNKNPIA	NASTREY	QQYHRLPLE	En_HC	6.0 nM	6/6
HISYSMQHLSKNKNSVA	NQQTREE	QQYHRLPLS	En_HC	1.5 nM	6/6
HIDWLNRGETLKKDDIA	NANHREQ	QQYFHLPLS	En_Gibbs	2.6 nM	6/6
IMTGIIEWGSNNKNNIA	ENKERFQ	QQYWQLPLS	En_Gibbs	16 nM	6/6
TIGQTLMYGMRNRSNVA	EVSERLN	QQYDRLPLL	En_Gen	470 nM	2/6
KLMQSTLYESRNANNVA	YASTREE	QQYHRLPLS	GP_Gibbs	1.5 nM	6/6
HLSHMSGVESVKRNSVA	ENSTREQ	QQYDRLPLM	En_Gen	52 nM	1/6
KLDEKNRWNGMANYNVA	ASNTRVD	QQYHRLPLI	En_Gibbs	3.7 nM	6/6
KINGVLYDESIDMQAVA	QENITVL	QQYFHLPLS	En_Gibbs	12 nM	6/6
MISQMMNMGQFAINSVA	QASERSN	QQYDRLPLV	En_Gen	97 nM	4/6
KLQQSWLYESRNINNVA	NCSKRES	QQYHRLPLS	GP_Gibbs	10 nM	6/6
MISQVMNTLTRHGNNVA	DLSERED	QQYFRLPLS	En_Gen	20 nM	6/6
HINDMLFGDTKIAHSIA	NTGVTSR	QQYSRLPLI	En_Gibbs	2.1 nM	6/6
KISYQYRFEQLSTNNIA	EVVTRLK	QQYHRLPLS	En_HC	5.4 nM	6/6
KLQQSQEYESRNKNSVA	DASQRLV	QQYHRLPLS	GP_Gibbs	1.3 nM	6/6
IVSQLMLWGLHAKNSIA	EATTRLN	QQYDRLPLF	En_Gen	38 nM	1/6
TISGMANYESTNKNSVA	ELTTRGQ	QQYERLPLS	En_HC	15 nM	6/6
MISQLMNMGQFAINSVA	QASERSE	QQYDRLPLI	En_Gen	130 nM	6/6
KMRVSLTQGIYRQDSVA	STDIRVL	QQYHHLPLS	En_Gibbs	60 nM	6/6
KFEVSNLYESRNGNSVA	NASTRSS	QQYHRLPLS	GP_Gibbs	120 nM	6/6
TLMQVGGYESNAHNSIA	DLRTRES	QQYHRLPLS	En_HC	6.0 nM	6/6
MLRFDITYGQKNWNAIA	ETSELGA	QQYMHLPLG	En_Gibbs	nd	0/6
KIQSHLSQDFAIWNNIA	DREQSAE	QQYHQLPLV	En_Gibbs	14 nM	6/6
TISGMANYESTNKNSVA	ELTMRGS	QQYERLPLS	En_HC	9.0 nM	6/6
MISDLTMTGSRNKNSVA	DLSTRGS	QQYHRLPLS	En_HC	910 pM	6/6
ILSQMLLTAGNKGNSVA	QANYRES	QQYHRLPLS	En_HC	15 nM	6/6
ILSDTVMQGSYYRNSVA	QESTRAD	QQYHHLPLS	En_HC	nd	0/6
KISQMYRYEQQNSSSIA	EANTRQQ	QSYHRLPLS	En_HC	640 nM	6/6

The closing 12 entries, repeated:

CDR-L1	CDR-L2	CDR-L3	group	Kd	replicates with signal
TISGMANYESTNKNSVA	ELTTRGQ	QQYERLPLS	En_HC	15 nM	6/6
MISQLMNMGQFAINSVA	QASERSE	QQYDRLPLI	En_Gen	130 nM	6/6
KMRVSLTQGIYRQDSVA	STDIRVL	QQYHHLPLS	En_Gibbs	60 nM	6/6
KFEVSNLYESRNGNSVA	NASTRSS	QQYHRLPLS	GP_Gibbs	120 nM	6/6
TLMQVGGYESNAHNSIA	DLRTRES	QQYHRLPLS	En_HC	6.0 nM	6/6
MLRFDITYGQKNWNAIA	ETSELGA	QQYMHLPLG	En_Gibbs	nd	0/6
KIQSHLSQDFAIWNNIA	DREQSAE	QQYHQLPLV	En_Gibbs	14 nM	6/6
TISGMANYESTNKNSVA	ELTMRGS	QQYERLPLS	En_HC	9.0 nM	6/6
MISDLTMTGSRNKNSVA	DLSTRGS	QQYHRLPLS	En_HC	910 pM	6/6
ILSQMLLTAGNKGNSVA	QANYRES	QQYHRLPLS	En_HC	15 nM	6/6
ILSDTVMQGSYYRNSVA	QESTRAD	QQYHHLPLS	En_HC	nd	0/6
KISQMYRYEQQNSSSIA	EANTRQQ	QSYHRLPLS	En_HC	640 nM	6/6